Results taken from patent US20220387633A1, “SMART PEPTIDES AND TRANSFORMABLE NANOPARTICLES FOR CANCER IMMUNOTHERAPY” (The Regents of the University of California, priority 2019, published 2022).

Test system: phosphorylation of Erk, Mek and Raf-1
Assay: Western blot of MAPK pathway proteins in MCF-7/C6 cells
Assay type: cell-based, human
Conditions: 36 h; NPs 50 μM, Herceptin 15 μg/mL
Description: Western blot analysis. MCF-7/C6 cells were treated by different conditions and then collected by centrifugation at 14,000 rpm for 10 min and lysed with a 1% (v/v) Triton X-100 containing lysis buffer (50 mM Tris-HCl, pH 8.0, 150 mM NaCl) with protease inhibitor. Total cellular proteins were estimated using a BCA kit (Applygen). Each sample (50 μg of protein) was subjected to SDS-PAGE and transferred to nitrocellulose membranes. After blocking for 2 h at room temperature with 5% (wt/v) nonfat dry milk in blotto solution (20 mM Tris-HCl, pH 7.5, 150 mM NaCl and 0.1% Tween 20), the membranes were incubated with primary antibody overnight at 4° C. Then the membranes were washed (3×5 min) with TBST solution and incubated with second antibodies for 2 h at room temperature. Signals were visualized by chemiluminescence on a Typhoon Trio Variable Mode Imager. Band density was calculated using NIH Image J software.

Substance: Herceptin: positive control in Western blot, anti-HER2 antibody
- phosphorylation of Erk, Mek and Raf-1: strongly inhibit
